In ChEMBL document CHEMBL1914424, “Evaluation of apoptotic effect of cyclic imide derivatives on murine B16F10 melanoma cells” (Bioorg Med Chem, 2011):

Assays:
Format in all cases: functional, cell-based
B16-F10 [1] = assay: Cytotoxicity against mouse B16F10 cells after 24 hrs by MTT assay
B16-F10 [2] = assay: Cytotoxicity against mouse B16F10 cells after 48 hrs by MTT assay
B16-F10 [3] = assay: Cytotoxicity against mouse B16F10 cells after 72 hrs by MTT assay

SMILES	inhibition (B16-F10 [1])	inhibition (B16-F10 [2])	inhibition (B16-F10 [3])
O=C1c2cccc3c(Cl)ccc(c23)C(=O)N1Cc1ccc(S(=O)(=O)N/N=C/c2ccc([N+](=O)[O-])cc2)cc1	Dose-dependent effect		
O=C1c2cccc3cccc(c23)C(=O)N1c1ccccc1	Dose-dependent effect		
O=C1c2cccc3cccc(c23)C(=O)N1CCc1ccccc1	Dose-dependent effect		
O=C1c2cccc3cccc(c23)C(=O)N1CCc1ccc(S(=O)(=O)N/N=C/c2ccccc2)cc1	Dose-dependent effect		
O=C1c2cccc3cccc(c23)C(=O)N1CCc1ccc(S(=O)(=O)N/N=C/c2ccc([N+](=O)[O-])cc2)cc1	Dose-dependent effect		
O=C1c2cccc3cccc(c23)C(=O)N1CCc1ccc(S(=O)(=O)N/N=C/c2ccc(O)cc2)cc1	Dose-dependent effect		
O=C1c2cccc3cccc(c23)C(=O)N1Cc1ccccc1	Dose-dependent effect	Dose-dependent effect	Dose-dependent effect
